We go through 1 substance from patent US7261867B1 (Eastman Kodak Company, priority 2006, dated 2007).

The conditions of the data set: about 170° C. melt.

In the case of silver laurylsulphate, the “discoloration in polyolefin melt” value is “extremely discolored”.
